Earlier results as cited in publication PMC5779092 (Biochemistry, 2017).
pKd: −log10 of the molar value.

Molecular target: BPTF bromodomain (5FW-BPTF) (Homo sapiens, UniProt Q12830)
Details: BPTF bromodomain inhibitor, recently reported; cited from earlier work

In the case of `COC(=O)c1cccc(NC(=O)NC2CCN(c3ccnc(Nc4ccc(F)cc4)n3)C2)c1` (stereo not shown) [AU1], the pKd is given as 5.55.
